# Assay results published in article PMC4577729, “7-(Pyrazol-4-yl)-3H-imidazo[4,5-b]pyridine-based derivatives for kinase inhibition: Co-crystallisation studies with Aurora-A reveal distinct differences in the orientation of the pyrazole N1-substituent” (Bioorganic & Medicinal Chemistry Letters, 2015).
# Chains of the proteins cited; added tags and fusions are not shown.
# UniProt P68400, whole entry: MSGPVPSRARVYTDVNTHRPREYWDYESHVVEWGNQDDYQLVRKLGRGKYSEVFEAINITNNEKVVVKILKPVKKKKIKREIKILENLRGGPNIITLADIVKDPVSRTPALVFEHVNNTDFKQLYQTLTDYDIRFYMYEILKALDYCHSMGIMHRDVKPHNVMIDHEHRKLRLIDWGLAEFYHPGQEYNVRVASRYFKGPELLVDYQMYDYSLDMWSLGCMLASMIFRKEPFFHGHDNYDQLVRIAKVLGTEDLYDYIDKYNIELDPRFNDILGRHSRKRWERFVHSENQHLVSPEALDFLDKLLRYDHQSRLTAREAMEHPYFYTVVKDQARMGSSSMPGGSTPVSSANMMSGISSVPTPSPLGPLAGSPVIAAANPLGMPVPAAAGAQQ
# UniProt P41240, whole entry: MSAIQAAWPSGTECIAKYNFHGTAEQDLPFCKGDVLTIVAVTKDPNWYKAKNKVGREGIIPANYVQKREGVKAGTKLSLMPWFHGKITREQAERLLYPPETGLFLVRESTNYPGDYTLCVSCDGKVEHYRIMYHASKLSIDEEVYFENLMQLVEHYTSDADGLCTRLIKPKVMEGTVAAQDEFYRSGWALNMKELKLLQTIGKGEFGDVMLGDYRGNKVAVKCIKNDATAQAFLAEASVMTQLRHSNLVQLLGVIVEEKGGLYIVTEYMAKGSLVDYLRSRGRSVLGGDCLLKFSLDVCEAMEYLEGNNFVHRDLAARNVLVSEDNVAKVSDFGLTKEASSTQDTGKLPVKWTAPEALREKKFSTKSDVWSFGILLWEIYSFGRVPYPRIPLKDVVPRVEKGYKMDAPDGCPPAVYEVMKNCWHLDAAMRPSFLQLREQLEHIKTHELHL
# UniProt O43781, whole entry: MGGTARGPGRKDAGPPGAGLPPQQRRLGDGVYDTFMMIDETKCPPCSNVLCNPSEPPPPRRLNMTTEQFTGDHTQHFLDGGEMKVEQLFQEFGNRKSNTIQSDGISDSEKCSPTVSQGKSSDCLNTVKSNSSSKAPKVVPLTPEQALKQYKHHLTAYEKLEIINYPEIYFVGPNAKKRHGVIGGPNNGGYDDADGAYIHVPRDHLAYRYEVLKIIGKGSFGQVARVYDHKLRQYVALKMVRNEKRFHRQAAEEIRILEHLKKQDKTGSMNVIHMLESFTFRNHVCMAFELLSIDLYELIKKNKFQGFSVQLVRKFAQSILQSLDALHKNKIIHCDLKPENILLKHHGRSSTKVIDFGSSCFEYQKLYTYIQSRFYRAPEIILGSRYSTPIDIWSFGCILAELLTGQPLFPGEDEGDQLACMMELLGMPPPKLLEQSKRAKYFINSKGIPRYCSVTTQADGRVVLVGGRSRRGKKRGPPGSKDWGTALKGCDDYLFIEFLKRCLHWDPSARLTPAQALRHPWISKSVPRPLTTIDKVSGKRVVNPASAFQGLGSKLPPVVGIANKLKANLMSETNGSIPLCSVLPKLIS
# UniProt P49841, whole entry: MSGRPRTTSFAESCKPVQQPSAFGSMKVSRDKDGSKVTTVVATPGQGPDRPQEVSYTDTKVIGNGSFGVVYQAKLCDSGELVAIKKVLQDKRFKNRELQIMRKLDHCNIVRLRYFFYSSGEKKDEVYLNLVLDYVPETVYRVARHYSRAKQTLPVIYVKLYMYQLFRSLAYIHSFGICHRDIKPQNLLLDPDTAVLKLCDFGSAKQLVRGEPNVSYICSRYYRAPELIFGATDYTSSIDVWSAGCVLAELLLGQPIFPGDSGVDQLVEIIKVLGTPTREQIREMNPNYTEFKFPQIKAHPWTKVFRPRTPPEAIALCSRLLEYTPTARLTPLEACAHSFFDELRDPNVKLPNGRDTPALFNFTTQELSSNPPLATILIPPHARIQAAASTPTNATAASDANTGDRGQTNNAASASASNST
# UniProt Q13233, whole entry: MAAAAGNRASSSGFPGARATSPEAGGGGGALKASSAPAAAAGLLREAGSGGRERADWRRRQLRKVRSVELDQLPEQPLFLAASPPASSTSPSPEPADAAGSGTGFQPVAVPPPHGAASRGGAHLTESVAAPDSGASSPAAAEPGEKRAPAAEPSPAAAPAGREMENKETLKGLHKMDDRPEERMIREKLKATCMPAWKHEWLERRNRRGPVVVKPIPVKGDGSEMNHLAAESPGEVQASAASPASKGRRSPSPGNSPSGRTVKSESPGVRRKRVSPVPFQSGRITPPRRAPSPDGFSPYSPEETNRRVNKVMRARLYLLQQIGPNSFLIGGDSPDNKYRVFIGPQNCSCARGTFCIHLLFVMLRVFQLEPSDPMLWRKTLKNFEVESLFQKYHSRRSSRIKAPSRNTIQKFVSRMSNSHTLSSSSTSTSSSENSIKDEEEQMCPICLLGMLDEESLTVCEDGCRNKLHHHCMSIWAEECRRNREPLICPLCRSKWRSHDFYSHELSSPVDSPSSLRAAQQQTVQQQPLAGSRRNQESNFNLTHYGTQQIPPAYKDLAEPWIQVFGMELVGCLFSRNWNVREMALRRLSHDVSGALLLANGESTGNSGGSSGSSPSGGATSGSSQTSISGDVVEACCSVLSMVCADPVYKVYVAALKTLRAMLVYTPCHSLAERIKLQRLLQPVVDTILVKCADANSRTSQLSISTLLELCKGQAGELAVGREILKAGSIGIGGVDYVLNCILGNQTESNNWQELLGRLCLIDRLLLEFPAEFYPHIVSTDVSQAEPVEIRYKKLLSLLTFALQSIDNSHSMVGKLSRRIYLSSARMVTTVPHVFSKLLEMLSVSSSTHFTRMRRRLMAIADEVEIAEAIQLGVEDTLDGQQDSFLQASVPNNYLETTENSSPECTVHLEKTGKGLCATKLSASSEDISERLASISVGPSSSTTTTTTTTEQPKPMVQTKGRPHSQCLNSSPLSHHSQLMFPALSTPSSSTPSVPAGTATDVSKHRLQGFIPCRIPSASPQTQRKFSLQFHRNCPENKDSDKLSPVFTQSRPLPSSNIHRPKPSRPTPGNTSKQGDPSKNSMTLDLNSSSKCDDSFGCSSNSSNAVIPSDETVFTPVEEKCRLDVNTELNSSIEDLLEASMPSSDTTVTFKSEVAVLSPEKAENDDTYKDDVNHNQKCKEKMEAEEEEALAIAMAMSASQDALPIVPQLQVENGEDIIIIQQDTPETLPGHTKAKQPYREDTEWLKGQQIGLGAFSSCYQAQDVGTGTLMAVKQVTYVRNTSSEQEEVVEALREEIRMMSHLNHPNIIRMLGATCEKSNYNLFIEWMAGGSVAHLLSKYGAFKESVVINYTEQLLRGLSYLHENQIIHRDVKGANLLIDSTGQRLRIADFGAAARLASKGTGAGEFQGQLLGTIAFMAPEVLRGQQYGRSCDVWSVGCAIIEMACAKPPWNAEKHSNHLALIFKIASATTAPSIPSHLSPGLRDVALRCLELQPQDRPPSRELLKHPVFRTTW
# UniProt P80192, whole entry: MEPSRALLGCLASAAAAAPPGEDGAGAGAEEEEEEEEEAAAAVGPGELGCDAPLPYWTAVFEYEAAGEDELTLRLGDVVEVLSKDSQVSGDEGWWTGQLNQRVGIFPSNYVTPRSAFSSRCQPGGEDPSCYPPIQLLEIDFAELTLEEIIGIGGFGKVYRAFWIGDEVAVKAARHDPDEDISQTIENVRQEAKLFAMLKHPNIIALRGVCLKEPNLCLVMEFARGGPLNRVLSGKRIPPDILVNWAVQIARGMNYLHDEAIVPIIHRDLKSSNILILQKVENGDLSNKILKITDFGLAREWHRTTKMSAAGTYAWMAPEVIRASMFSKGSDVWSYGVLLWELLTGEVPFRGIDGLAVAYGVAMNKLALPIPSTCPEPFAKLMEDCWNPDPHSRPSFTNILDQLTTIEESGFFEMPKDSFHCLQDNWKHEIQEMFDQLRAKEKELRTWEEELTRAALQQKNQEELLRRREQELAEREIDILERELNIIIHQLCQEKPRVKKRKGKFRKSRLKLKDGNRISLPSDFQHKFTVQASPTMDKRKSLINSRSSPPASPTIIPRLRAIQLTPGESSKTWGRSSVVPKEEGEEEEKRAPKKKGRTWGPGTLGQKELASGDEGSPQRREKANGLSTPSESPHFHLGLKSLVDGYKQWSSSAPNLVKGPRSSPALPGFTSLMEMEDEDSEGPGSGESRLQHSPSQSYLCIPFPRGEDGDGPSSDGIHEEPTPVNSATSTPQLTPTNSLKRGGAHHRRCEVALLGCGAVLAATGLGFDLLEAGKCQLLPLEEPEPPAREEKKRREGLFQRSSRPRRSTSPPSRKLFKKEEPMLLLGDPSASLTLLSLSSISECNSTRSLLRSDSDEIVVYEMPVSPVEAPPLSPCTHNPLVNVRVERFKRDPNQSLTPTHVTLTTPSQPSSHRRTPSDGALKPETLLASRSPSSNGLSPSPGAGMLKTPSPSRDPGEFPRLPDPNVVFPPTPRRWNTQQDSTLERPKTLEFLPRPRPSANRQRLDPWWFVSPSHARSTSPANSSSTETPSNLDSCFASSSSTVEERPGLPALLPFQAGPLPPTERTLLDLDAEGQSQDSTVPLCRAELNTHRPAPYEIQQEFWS
# UniProt Q13188, whole entry: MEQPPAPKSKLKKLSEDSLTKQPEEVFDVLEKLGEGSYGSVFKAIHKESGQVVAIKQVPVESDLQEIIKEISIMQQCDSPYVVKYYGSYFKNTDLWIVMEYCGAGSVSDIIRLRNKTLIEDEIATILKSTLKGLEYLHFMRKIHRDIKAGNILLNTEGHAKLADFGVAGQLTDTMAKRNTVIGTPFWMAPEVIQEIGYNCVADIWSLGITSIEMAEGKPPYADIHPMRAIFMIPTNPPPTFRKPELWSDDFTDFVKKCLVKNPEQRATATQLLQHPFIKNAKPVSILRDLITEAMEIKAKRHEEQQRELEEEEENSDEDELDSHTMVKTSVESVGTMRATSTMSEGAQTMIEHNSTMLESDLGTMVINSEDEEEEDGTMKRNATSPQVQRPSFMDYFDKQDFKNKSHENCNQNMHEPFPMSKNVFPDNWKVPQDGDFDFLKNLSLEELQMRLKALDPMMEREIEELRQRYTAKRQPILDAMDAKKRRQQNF
# UniProt Q9P286, whole entry: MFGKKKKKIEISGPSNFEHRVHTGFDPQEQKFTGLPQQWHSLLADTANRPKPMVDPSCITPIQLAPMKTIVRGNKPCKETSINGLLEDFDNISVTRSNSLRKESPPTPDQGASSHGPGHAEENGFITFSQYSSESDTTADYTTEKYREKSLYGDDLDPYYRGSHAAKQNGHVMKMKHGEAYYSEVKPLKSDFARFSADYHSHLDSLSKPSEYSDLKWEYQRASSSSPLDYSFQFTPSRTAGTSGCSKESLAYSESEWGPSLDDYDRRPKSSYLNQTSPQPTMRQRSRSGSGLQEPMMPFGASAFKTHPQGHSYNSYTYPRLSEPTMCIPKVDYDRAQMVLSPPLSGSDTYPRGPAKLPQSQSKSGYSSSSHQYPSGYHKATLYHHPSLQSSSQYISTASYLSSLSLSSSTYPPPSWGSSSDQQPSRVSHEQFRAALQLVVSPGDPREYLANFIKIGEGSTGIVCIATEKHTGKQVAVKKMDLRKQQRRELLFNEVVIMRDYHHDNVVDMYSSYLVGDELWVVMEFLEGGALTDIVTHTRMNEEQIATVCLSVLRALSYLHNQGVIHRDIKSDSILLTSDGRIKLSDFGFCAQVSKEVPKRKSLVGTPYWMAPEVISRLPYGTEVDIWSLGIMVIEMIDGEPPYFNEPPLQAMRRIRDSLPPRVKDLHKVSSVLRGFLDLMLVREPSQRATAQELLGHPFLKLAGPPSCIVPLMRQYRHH
# UniProt P23443, whole entry: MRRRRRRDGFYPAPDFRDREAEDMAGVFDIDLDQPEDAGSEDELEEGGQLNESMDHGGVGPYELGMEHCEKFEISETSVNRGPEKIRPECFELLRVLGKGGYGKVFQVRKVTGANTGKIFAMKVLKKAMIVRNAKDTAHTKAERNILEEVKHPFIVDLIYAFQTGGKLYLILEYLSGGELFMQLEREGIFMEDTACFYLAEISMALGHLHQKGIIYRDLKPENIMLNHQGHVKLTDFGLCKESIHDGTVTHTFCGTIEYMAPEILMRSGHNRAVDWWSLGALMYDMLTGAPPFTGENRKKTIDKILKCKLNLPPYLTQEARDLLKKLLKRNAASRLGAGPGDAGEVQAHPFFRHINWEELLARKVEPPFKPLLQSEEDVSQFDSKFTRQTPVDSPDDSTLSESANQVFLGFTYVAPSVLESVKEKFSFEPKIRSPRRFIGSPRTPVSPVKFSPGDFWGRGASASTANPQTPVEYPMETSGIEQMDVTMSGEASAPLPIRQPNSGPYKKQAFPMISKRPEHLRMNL
# UniProt Q16539, whole entry: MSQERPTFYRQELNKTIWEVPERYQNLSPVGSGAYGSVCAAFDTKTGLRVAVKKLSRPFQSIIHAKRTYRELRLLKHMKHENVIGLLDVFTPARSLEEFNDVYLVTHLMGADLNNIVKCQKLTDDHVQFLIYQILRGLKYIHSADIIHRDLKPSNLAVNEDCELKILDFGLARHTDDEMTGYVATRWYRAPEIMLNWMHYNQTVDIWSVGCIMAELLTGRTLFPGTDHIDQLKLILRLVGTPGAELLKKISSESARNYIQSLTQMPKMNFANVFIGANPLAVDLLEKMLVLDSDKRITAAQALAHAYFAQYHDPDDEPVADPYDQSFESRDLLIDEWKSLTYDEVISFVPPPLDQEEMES
# How the values were obtained:
# Experiment in all cases: Kinase selectivity profiling
# Format in all cases: biochemical
# Aurora A = Aurora A (Homo sapiens, UniProt O14965); details: 1 µM, assay duplicates
# Experimental: (§1) [20] Kinase selectivity profiling for compounds 7a, 7d, 14d and 14g was carried out at the International Centre for Protein Kinase Profiling, Division of Signal Transduction Therapy, University of Dundee.
# (§2) Table S1: Kinase selectivity profiling of compounds 7a and 7d in a 102-kinase panel screened at a concentration of 1 µM.
# (§3) Table S2: Kinase selectivity profiling of compounds 14d and 14g in a 105-kinase panel screened at a concentration of 1 µM.
# BRSK1 = BRSK1 (Homo sapiens, UniProt Q8TDC3); details: 1 µM, assay duplicates
# Experimental: as §1, §2, §3
# CAMK1 = CAMK1 (Homo sapiens, UniProt Q14012); details: 1 µM, assay duplicates
# Experimental: as §1, §2, §3
# CAMKKb = CAMKKb (Homo sapiens, UniProt Q96RR4); details: 1 µM, assay duplicates
# Experimental: as §1, §2, §3
# CK2 = CK2 (Homo sapiens, UniProt P68400); details: 1 µM, assay duplicates
# Experimental: as §1, §2, §3
# CSK = CSK (Homo sapiens, UniProt P41240); details: 1 µM, assay duplicates
# Experimental: as §1, §2, §3
# DYRK2 = DYRK2 (Homo sapiens, UniProt Q92630); details: 1 µM, assay duplicates
# Experimental: as §1, §2, §3
# DYRK3 = DYRK3 (Homo sapiens, UniProt O43781); details: 1 µM, assay duplicates
# Experimental: as §1, §2, §3
# FGF-R1 = FGF-R1 (Homo sapiens, UniProt P11362); details: 1 µM, assay duplicates
# Experimental: as §1, §2, §3
# GSK3b = GSK3b (Homo sapiens, UniProt P49841); details: for GSK3β inhibition: 1 μM; for GSK3b % activity remaining: 1 µM, assay duplicates
# Experimental: as §1, §2, §3
# HIPK1 = HIPK1 (Homo sapiens, UniProt Q86Z02); details: 1 µM, assay duplicates
# Experimental: as §1, §2, §3
# JNK3 = JNK3 (Homo sapiens, UniProt P53779); details: 1 µM, assay duplicates
# Experimental: as §1, §2, §3
# Lck = Lck (Homo sapiens, UniProt P06239); details: 1 µM, assay duplicates
# Experimental: as §1, §2, §3
# MAPKAP-K2 = MAPKAP-K2 (Homo sapiens, UniProt P49137); details: 1 µM, assay duplicates
# Experimental: as §1, §2, §3
# MARK1 = MARK1 (Homo sapiens, UniProt Q9P0L2); details: 1 µM, assay duplicates
# Experimental: as §1, §2, §3
# MARK3 = MARK3 (Homo sapiens, UniProt P27448); details: 1 µM, assay duplicates
# Experimental: as §1, §2, §3
# MEKK1 = MEKK1 (Homo sapiens, UniProt Q13233); details: 1 µM, assay duplicates
# Experimental: as §1, §2, §3
# MELK = MELK (Homo sapiens, UniProt Q14680); details: 1 µM, assay duplicates
# Experimental: as §1, §2, §3
# MLK1 = MLK1 (Homo sapiens, UniProt P80192); details: for MLK1 inhibition: 1 μM; for MLK1 % activity remaining: 1 µM, assay duplicates
# Experimental: as §1, §2, §3
# MLK3 = MLK3 (Homo sapiens, UniProt Q16584); details: 1 µM, assay duplicates
# Experimental: as §1, §2, §3
# MNK1 = MNK1 (Homo sapiens, UniProt Q9BUB5); details: 1 µM, assay duplicates
# Experimental: as §1, §2, §3
# MNK2 = MNK2 (Homo sapiens, UniProt Q9HBH9); details: 1 µM, assay duplicates
# Experimental: as §1, §2, §3
# MST2 = MST2 (Homo sapiens, UniProt Q13188); details: 1 µM, assay duplicates
# Experimental: as §1, §2, §3
# MST4 = MST4 (Homo sapiens, UniProt Q9P289); details: 1 µM, assay duplicates
# Experimental: as §1, §2, §3
# NEK2a = NEK2a (Homo sapiens, UniProt P51955); details: 1 µM, assay duplicates
# Experimental: as §1, §2, §3
# NEK6 = NEK6 (Homo sapiens, UniProt Q9HC98); details: 1 µM, assay duplicates
# Experimental: as §1, §2, §3
# PAK4 = PAK4 (Homo sapiens, UniProt O96013); details: 1 µM, assay duplicates
# Experimental: as §1, §2, §3
# PAK5 = PAK5 (Homo sapiens, UniProt Q9P286); details: 1 µM, assay duplicates
# Experimental: as §1, §2, §3
# PDK1 = PDK1 (Homo sapiens, UniProt O15530); details: 1 µM, assay duplicates
# Experimental: as §1, §2, §3
# PIM2 = PIM2 (Homo sapiens, UniProt Q9P1W9); details: 1 µM, assay duplicates
# Experimental: as §1, §2, §3
# PKBb = PKBb (Homo sapiens, UniProt P31751); details: 1 µM, assay duplicates
# Experimental: as §1, §2, §3
# PKCa = PKCa (Homo sapiens, UniProt P17252); details: 1 µM, assay duplicates
# Experimental: as §1, §2, §3
# PRAK = PRAK (Homo sapiens, UniProt Q8IW41); details: 1 µM, assay duplicates
# Experimental: as §1, §2, §3
# ROCK 2 = ROCK 2 (Homo sapiens, UniProt O75116); details: 1 µM, assay duplicates
# Experimental: as §1, §2, §3
# S6K1 = S6K1 (Homo sapiens, UniProt P23443); details: 1 µM, assay duplicates
# Experimental: as §1, §2, §3
# SGK1 = SGK1 (Homo sapiens, UniProt O00141); details: 1 µM, assay duplicates
# Experimental: as §1, §2, §3
# SRPK1 = SRPK1 (Homo sapiens, UniProt Q96SB4); details: 1 µM, assay duplicates
# Experimental: as §1, §2, §3
# SYK = SYK (Homo sapiens, UniProt P43405); details: 1 µM, assay duplicates
# Experimental: as §1, §2, §3
# TBK1 = TBK1 (Homo sapiens, UniProt Q9UHD2); details: 1 µM, assay duplicates
# Experimental: as §1, §2, §3
# TTK = TTK (Homo sapiens, UniProt P33981); details: 1 µM, assay duplicates
# Experimental: as §1, §2, §3
# p38a MAPK = p38a MAPK (Homo sapiens, UniProt Q16539); details: 1 µM, assay duplicates
# Experimental: as §1, §2, §3
# p38b MAPK = p38b MAPK (Homo sapiens, UniProt Q15759); details: 1 µM, assay duplicates
# Experimental: as §1, §2, §3
# p38g MAPK = p38g MAPK (Homo sapiens, UniProt P53778); details: 1 µM, assay duplicates
# Experimental: as §1, §2, §3
structure (smiles),measurement,setting,value
CNCc1cccc(Cn2cc(-c3c(Cl)cnc4[nH]c(-c5cn(C)nc5C)nc34)cn2)c1,Aurora A % activity remaining,Aurora A,1%
same,BRSK1 % activity remaining,BRSK1,56%
same,CAMK1 % activity remaining,CAMK1,43%
same,CAMKKb % activity remaining,CAMKKb,51%
same,CK2 % activity remaining,CK2,55%
same,CSK % activity remaining,CSK,62%
same,DYRK2 % activity remaining,DYRK2,58%
same,DYRK3 % activity remaining,DYRK3,36%
same,FGF-R1 % activity remaining,FGF-R1,7%
same,GSK3β inhibition,GSK3b,≥ 80%
same,GSK3b % activity remaining,GSK3b,2%
same,HIPK1 % activity remaining,HIPK1,21%
same,JNK3 % activity remaining,JNK3,40%
same,Lck % activity remaining,Lck,17%
same,MAPKAP-K2 % activity remaining,MAPKAP-K2,84%
same,MARK1 % activity remaining,MARK1,56%
same,MARK3 % activity remaining,MARK3,44%
same,MEKK1 % activity remaining,MEKK1,12%
same,MELK % activity remaining,MELK,58%
same,MLK1 inhibition,MLK1,≥ 80%
same,MLK1 % activity remaining,MLK1,8%
same,MLK3 % activity remaining,MLK3,4%
same,MNK1 % activity remaining,MNK1,62%
same,MNK2 % activity remaining,MNK2,51%
same,MST2 % activity remaining,MST2,80%
same,MST4 % activity remaining,MST4,50%
same,NEK2a % activity remaining,NEK2a,86%
same,NEK6 % activity remaining,NEK6,80%
same,PAK4 % activity remaining,PAK4,51%
same,PAK5 % activity remaining,PAK5,48%
same,PDK1 % activity remaining,PDK1,27%
same,PIM2 % activity remaining,PIM2,80%
same,PKBb % activity remaining,PKBb,70%
same,PKCa % activity remaining,PKCa,45%
same,PRAK % activity remaining,PRAK,110%
same,ROCK 2 % activity remaining,ROCK 2,32%
same,S6K1 % activity remaining,S6K1,13%
same,SGK1 % activity remaining,SGK1,25%
same,SRPK1 % activity remaining,SRPK1,53%
same,SYK % activity remaining,SYK,30%
same,TBK1 % activity remaining,TBK1,19%
same,TTK % activity remaining,TTK,45%
same,p38a MAPK % activity remaining,p38a MAPK,94%
same,p38b MAPK % activity remaining,p38b MAPK,74%
same,p38g MAPK % activity remaining,p38g MAPK,48%
Cc1nn(C)cc1-c1nc2c(-c3cnn(Cc4ccc(Cl)cc4)c3)c(Cl)cnc2[nH]1,Aurora A % activity remaining,Aurora A,1%
same,BRSK1 % activity remaining,BRSK1,35%
same,CAMK1 % activity remaining,CAMK1,101%
same,CAMKKb % activity remaining,CAMKKb,32%
same,CK2 % activity remaining,CK2,30%
same,CSK % activity remaining,CSK,80%
same,DYRK2 % activity remaining,DYRK2,15%
same,DYRK3 % activity remaining,DYRK3,19%
same,FGF-R1 % activity remaining,FGF-R1,13%
same,GSK3β inhibition,GSK3b,greater than 80%
same,GSK3b % activity remaining,GSK3b,3%
same,HIPK1 % activity remaining,HIPK1,5%
same,JNK3 % activity remaining,JNK3,40%
same,Lck % activity remaining,Lck,88%
same,MAPKAP-K2 % activity remaining,MAPKAP-K2,102%
same,MARK1 % activity remaining,MARK1,51%
same,MARK3 % activity remaining,MARK3,25%
same,MEKK1 % activity remaining,MEKK1,78%
same,MELK % activity remaining,MELK,27%
same,MLK1 inhibition,MLK1,greater than 80%
same,MLK1 % activity remaining,MLK1,6%
same,MLK3 % activity remaining,MLK3,3%
same,MNK1 % activity remaining,MNK1,27%
same,MNK2 % activity remaining,MNK2,35%
same,MST2 % activity remaining,MST2,77%
same,MST4 % activity remaining,MST4,58%
same,NEK2a % activity remaining,NEK2a,68%
same,NEK6 % activity remaining,NEK6,77%
same,PAK4 % activity remaining,PAK4,38%
same,PAK5 % activity remaining,PAK5,49%
same,PDK1 % activity remaining,PDK1,87%
same,PIM2 % activity remaining,PIM2,98%
same,PKBb % activity remaining,PKBb,105%
same,PKCa % activity remaining,PKCa,57%
same,PRAK % activity remaining,PRAK,89%
same,ROCK 2 % activity remaining,ROCK 2,57%
same,S6K1 % activity remaining,S6K1,37%
same,SGK1 % activity remaining,SGK1,83%
same,SRPK1 % activity remaining,SRPK1,72%
same,SYK % activity remaining,SYK,74%
same,TBK1 % activity remaining,TBK1,46%
same,TTK % activity remaining,TTK,37%
same,p38a MAPK % activity remaining,p38a MAPK,91%
same,p38b MAPK % activity remaining,p38b MAPK,100%
same,p38g MAPK % activity remaining,p38g MAPK,55%
